Test results as given in US8748411B2, “Antineoplastic compounds and pharmaceutical compositions thereof” (Centro de Ingenieria Genetica y Biotechnologia, priority 2005, dated 2014).

System: CK2 optimized consensus substrate sequence RRREEETEEE
Experiment: In vitro CK2 phosphorylation of the optimized consensus substrate peptide […], filter radioactivity
Format: biochemical
Settings: read-out: Inhibitory concentration 50 (IC50); substrate peptide preincubated 1 h at 37° C.; reaction 10 minutes at 37° C., 100 μM ATP

With `NNC(=O)NP(=O)(NC(=O)NN)NC(=O)NN` as the compound, how does the IC50 read?
The IC50 was 73 nM.
